{"source": "patent US20050238739A1", "about": "(priority 2004, published 2005)", "origin": "cited, not measured here", "conditions": "after oral intake", "data": [{"substance": "calcium carbonate", "values": [{"measurement": "intestinal absorption efficiency", "result": "up to 68%"}]}]}
